The text below walks through data of paper PMC8754651.

In this experiment the target is human TFIIH p62 PH domain (PH-D) (residues 1–108) (human) (UniProt P32780). In words: NMR titration; unlabeled RPB6 (1−127) added to 50 μM 15N-labeled p62 PH-D, molar ratios 1:0 to 1:2.50; 1H,15N-HSQC; 20 mM potassium phosphate (pH 6.8), 25 mM NaCl, 5 mM deuterated DTT, 10% D2O, 32°C.

For “human RPB6 (residues 1–127), full-length (from UniProt P61218 1-127) (natural protein)”, the stoichiometry N stood at 1.

By stoichiometry N is commonly meant a count of units in the complex or per binding partner.
